# Reference: PubChem BioAssay AID1875 (Broad Institute, 2009)
# The list shows a part of the results. Calls of active or inactive are those of the source.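 Rule for the calls: active = lowest replicate activity score at least 50, where 100 means six control SD above control mean; inconclusive = lowest score under 50 but half or more replicates reach 50; inactive = the rest.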
# Assay: perturbers of mRNA poly(A) processing – luminescence, S. cerevisiae, primary screen (AID 1875);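 note: yeast exposed to compound for 9 h at 30 °C; higher score means more reporter readthrough which indicates perturbed polyadenylation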
# Conditions: S. cerevisiae SKY197-pL101 polyadenylation reporter, beta-gal luminescence; at 12 µM; active compounds read high; efflux-impaired pdr1/pdr3 knockout yeast; score 100 = 6 SD above DMSO
row,Compound,activity score
1,Cc1cccc(C)c1OP(C)(=O)Nc1ccc(SC(F)(F)F)cc1 (configuration not stated),inactive: 14.4%
2,CP(=O)(Oc1ccccc1)OC(c1ccccc1)C(F)(F)F (configuration not stated),inactive: 10.2%
3,CP(=O)(NC(=O)Nc1ccccc1)Oc1ccccc1 (configuration not stated),inactive: -13.5%
4,O=C(COc1ccccc1)OC1CN2CCC1CC2 (configuration not stated),inactive: 21.2%
5,CCc1ccc(OP(C)(=O)N2CCN(c3ccc([N+](=O)[O-])cc3)CC2)cc1 (configuration not stated),inactive: 14.8%
6,Cc1cc(C)cc(OP(C)(=O)Nc2ccc(SC(F)(F)F)cc2)c1 (configuration not stated),inactive: 25%
7,O=C(Nc1ccncc1[N+](=O)[O-])c1ccc([N+](=O)[O-])cc1[N+](=O)[O-],inactive: -17.9%
8,O=[N+]([O-])c1cc([N+](=O)[O-])c(O)c([N+](=O)[O-])c1.c1ccc(Oc2ccncc2)cc1,inactive: -9.21%
9,CCOC(=O)c1ccc(NP(C)(=O)Oc2ccc(OC)cc2)cc1 (configuration not stated),inactive: 1.42%
10,CCOC(=O)c1ccc(NC(=O)C(C)(CCl)SC)cc1 (configuration not stated),inactive: -8.59%
11,CCOP(C)(=S)SCC(=O)NC(C)C(=O)O (configuration not stated),inactive: 11.2%
12,O=C(OC1CN2CCC1CC2)c1cccc([N+](=O)[O-])c1 (configuration not stated),inactive: -16.4%
13,CP(=O)(Nc1ccccn1)Oc1ccc(Cl)cc1 (configuration not stated),inactive: 0.295%
14,CCC(C)N(CC(C)C)C(=S)SC(NC(C)=O)C(Cl)(Cl)Cl (configuration not stated),inactive: -8.04%
15,CCN(CC)CC(O)COC(=O)C(O)(c1ccccc1)C1CCCCC1 (configuration not stated),inactive: 0.987%
16,COc1ccc(C2=NCC(CBr)S2)cc1 (configuration not stated),inactive: -6.4%
17,COc1ccc(OP(C)(=O)Nc2ccc(Br)cc2)cc1 (configuration not stated),inactive: -7.09%
18,CC(=O)N1C2C3N(C(C)=O)C1C1N(C(C)=O)C(C(N1C(C)=O)N3C(C)=O)N2C(C)=O,inactive: -2.38%
19,O=[N+]([O-])c1cccc2n[nH]nc12,inactive: 5.46%
20,COc1ccccc1OP(C)(=O)Nc1c(C)n(C)n(-c2ccccc2)c1=O (configuration not stated),inactive: 6.92%
21,O=C(OCCCN1CCCC1)C(O)(c1ccccc1)C1CCCCC1 (configuration not stated),inactive: 13.4%

row,Compound,activity score
1,Cc1ccc(NP(=O)(Oc2ccccc2)Oc2ccccc2)nc1,inactive: 13.2%
2,CP(=O)(Oc1ccccc1)N1CCOC1=O (configuration not stated),inactive: 2.09%
3,CCc1ccc(OP(C)(=O)Nc2cccnc2)cc1 (configuration not stated),inactive: 21%
4,O=[N+]([O-])c1cc([N+](=O)[O-])c(CCNc2ccccc2)c([N+](=O)[O-])c1,inactive: -51%
5,CCc1nc2c(n1)c1c(non1O)c1c2no[n+]1[O-],inactive: -10.3%
6,COc1ccccc1OP(C)(=O)Nc1ccccc1Br (configuration not stated),inactive: -4.98%
7,Nc1ccc([As](=O)(O)c2ccc(N)cc2)cc1,inactive: 19.4%
8,CC(C)(C)c1ccc(OP(C)(=O)O)cc1,inactive: 20.5%
9,C[N+]1=C2C=CC=CC=C2SC12C([N+](=O)[O-])=CC([N+](=O)[O-])=C[C-]2[N+](=O)[O-] (configuration not stated),inactive: -21.9%
10,CCN(/C(=N/P(=O)(N1CCOCC1)N1CCOCC1)N1CCOCC1)c1ccc(OC)cc1,inactive: -3.27%
11,CP(=O)(Nc1ccc(Cl)cc1)Oc1ccc(F)cc1 (configuration not stated),inactive: -6.69%
12,CC(C)=N/N=C(\N)N[N+](=O)[O-],inactive: 5.54%
13,CN(C)C(=O)c1c([N+](=O)[O-])cc([N+](=O)[O-])cc1[N+](=O)[O-],inactive: 12.3%
14,CN(C)C(=O)OCCc1n(C)cc[n+]1C,inactive: -3.39%
15,CC1CCN(C(=O)Oc2c(Cl)cc(Cl)c3cccnc23)CC1,inactive: -5.69%
16,Nc1ccc2c(ccc3cccnc32)n1.O=[N+]([O-])c1cc([N+](=O)[O-])c(O)c([N+](=O)[O-])c1,inactive: -1.33%
17,CCOC(=O)c1ccc(NP(C)(=O)Oc2ccc(Cl)cc2)cc1 (configuration not stated),inactive: -2.81%
18,O=C(Nc1cc([As](=O)(O)O)ccc1O)c1ccccc1,inactive: -2.16%
19,CP(=O)(OC12CC3CC(CC(C3)C1)C2)OC12CC3CC(CC(C3)C1)C2,inactive: -3.11%
20,CC(C)(C)C(=O)NC(Sc1ccncn1)C(Cl)(Cl)Cl (configuration not stated),inactive: -7.35%
21,O=[N+]([O-])c1ncn(CCn2ncnc2[N+](=O)[O-])n1,inactive: -25.9%

row,Compound,activity score
1,O=[N+]([O-])c1cccc(NC2=NCC(CBr)S2)c1 (configuration not stated),inactive: 18.7%
2,O=C(O)CNc1ccc([As](=O)(O)O)cc1,inactive: 14.1%
3,CC(=O)Nc1ccc([As](=O)(O)O)cc1,inactive: -6.7%
4,O=C(O)c1ccccc1[As](=O)(O)O,inactive: -0.786%
5,O=P(Nc1nc2ccc(Cl)cc2s1)(c1ccccc1)c1ccccc1,inactive: -11.6%
6,Cc1cc(C)cc(OP(C)(=O)Nc2cccc(C(F)(F)F)c2)c1 (configuration not stated),inactive: 7.16%
7,Cc1cc(SC(NC(=O)c2ccc(F)cc2)C(Cl)(Cl)Cl)ncn1 (configuration not stated),inactive: -6.99%
8,CCOP(=O)(Nc1ccccc1)OCC,inactive: -6.83%
9,COc1ccccc1OP(C)(=O)Nc1ccc(C)c(C)c1 (configuration not stated),inactive: -6.44%
10,CN(C(=O)Cc1ccc(Cl)c(Cl)c1)[C@H]1CCCC[C@@H]1N1CCCC1,inactive: -11.2%
11,Cc1ccc(NP(=O)(Oc2ccccc2F)Oc2ccccc2F)nc1,inactive: -0.459%
12,COc1ccc(OP(C)(=O)Nc2ccccc2Br)cc1 (configuration not stated),inactive: 2.02%
13,Cc1nc2ccc3ccccc3c2o1.O=[N+]([O-])c1cc([N+](=O)[O-])c(O)c([N+](=O)[O-])c1,inactive: -9.87%
14,O=[N+]([O-])c1cc([N+](=O)[O-])c(CCN2CCOCC2)c([N+](=O)[O-])c1,inactive: -12%
15,CCN(N=Nc1nonc1N)c1nonc1N,inactive: 5.43%
16,Nc1cccc2ccc([As](=O)(O)O)cc12,inactive: 0.717%
17,CP(=O)(Nc1ccc(Cl)cc1Cl)Oc1ccccc1 (configuration not stated),inactive: 0.319%
18,CP(=O)(OCCOc1ccccc1)OCCOc1ccccc1,inactive: -2.33%
19,NC(=O)c1cc([N+](=O)[O-])cc([N+](=O)[O-])c1N,inactive: 4.3%
20,COc1ccccc1OP(C)(=O)Nc1ccc(Br)cc1 (configuration not stated),inactive: -13.4%
